Consider two substances from patent publication US20250228794A1, “HOMOVANILLYL ALCOHOL (HVA), HVA ISOMER, METHODS OF MAKING COMPOSITIONS COMPRISING SUCH COMPOUNDS, AND METHODS USING SUCH COMPOUNDS” (SOCIETE DES PRODUITS NESTLE S.A., priority 2017, published 2025).

This data set is described as follows: Urinary excretion of oleuropein metabolites after intake of olive leaf extract (pilot study, LC-MS). The conditions noted are these: for detection and identification in urine: LC-MS, MS2/MS3. Here is the method: Specifically, urine samples were enzymatically treated to hydrolyze the glucuronide and sulfate moieties and release the free forms which were quantified. After sample purification by liquid-liquid extraction, the chromatographic separation was operated on an Acquity™ UPLC® BEH C18 column (1.7 μm, 2.1×150 mm). The mobile phase consisted of 1 mmol/L ammonium acetate buffer and methanol under gradient conditions at a flow-rate of 0.25 mL/min. Hydroxytyrosol, homovanillyl alcohol, and the homovanillyl alcohol isomer 3-hydroxy-4-methoxyphenethanol (alternatively named 3-hydroxy-4-methoxyphenethyl alcohol) were identified and quantified by high performance liquid chromatography-electrospray ionization tandem mass spectrometry (HPLC-ESI-MS/MS) and by comparison with their corresponding chemically synthesized standards.
The circulating concentration and kinetics of absorption of phenolic compounds and their metabolites in biological fluids (plasma or urine) depends on the matrix in which the compounds are ingested, the dose ingested, the time point of sample collection, the microflora of each individual, and the metabolism of each individual. To develop the most appropriate analytical approach for the measurement of OE absorption, a pilot study was conducted. Specifically, five subjects collected urine at baseline (before intake of the olive leaf extract) and between the intakes of two capsules of the olive leaf extract.
The analytical method (sample preparation, deconjugation conditions, chromatographic detection and separation) was first developed by spiking chemical standards which were commercially available in commercial urine. The deconjugation conditions were determined by using the conjugates available, hydroxytyrosol sulfate and homovanillyl alcohol glucuronide. The commercially available chemical standards were 3,4-Dihydroxybenzoic acid; 3,4-Dihydroxyphenylacetic acid; Homovanillic acid; Homovanillyl alcohol; Homovanillyl alcohol glucuronide (vanillyl methanol glucuronide); Hydroxytyrosol; Hydroxytyrosol sulfate (hydroxytyrosol sulfate triethylammonium salt); and Vanillic acid.
Briefly, the sample preparation consisted of a liquid-liquid extraction with ethyl acetate after a protein precipitation using acidified methanol.
Regarding chromatographic analysis, Oleuropein metabolites were separated by reversed-phase ultra-performance liquid chromatography using a C18-column Acquity UPLC BEH C18 1.7 μm, 2.1 mm×150 mm, (Waters AG, Switzerland). […]
Relative amount of the metabolites identified was first evaluated to clarify if their excretion in urine was increasing after intake of the olive leaf extract. […]

As for Hydroxytyrosol glucuronide, the “Number of forms confirmed in urine” value turned out to be 2; the “detection and identification in urine” value is recorded as “Presence & identity confirmed”.
The matching figures for Hydroxytyrosol sulfoglucuronide: 1 and “Presence & identity confirmed”.
